The results in this text go back to US20230257727.

The target of the data set is T1, Target peptide labeled with succinic anhydride (succinic acid-labeled AAGVAMPGAEDDVVGSGSK(N3)).
T1 chain: AAGVAMPGAEDDVVGSGSK

B1: Modified cleavase N191S/N306G/D650S (SEQ ID NO: 39) (protein)
chain: GEGMWVPQQLPEIAGPLKKAGLKLSPQQISDLTGDPMGAVVALGGCTASFVSPNGLVVTNHHCAYGAIQLNSTAENNLIKNGFNAPTTADEVSAGPNARVFVLDEITDVTKDAKAAIAAAGDDALARTKALEAFEKKLIADCEAEAGFRCRLYSFSGGNTYRLFKNLEIKDVRLAYAPPGSVGKFGGDIDSWMWPRHTGDFAFYRAYVGKDGKPAAFSKDNVPYQPKHWLKFADQPLGAGDFVMVAGYPGSTNRYALAAEFDNTAQWTYPTIARHYKNQIAMVEAAGKQNADIQVKYAATMAGWNGTSKNYDGQLEGFKRIDAAGQKLREEAAVLGWLKGQGAKGQPALDAHAKLLDLLEQSKATRDRDLTLALFNNTAMLGSATQLYRLSIEREKPNAERESGYQERDLPAIEGGLKQLERRYVAAMDRQLQEYWLNEYIKLPADQRVAAVDAWLGGNDAAAVKRALDRLAGTKLGSTEERLKWFAADRKAFEASNDPAIQYAVAVMPTLLKLEQERKTRAGENLAARPVYLQALADYKKSQGEFVYPDANLSLRITFGNVMGYAPKDGMEYTPFTTLEGVVAKETGQDPFDSPKALLDAVAAKRYGGLEDKRIGSVPVNYLSDLDITGGNSGSPVLDAHGKLVGLAFSGNWESVSSNWVFDPKMTRMIAVDGRYLRWIMQEVYPAPQLLKEMNVGK
As for B1, the “Product Removed by Modified Cleavase” value is “Succinic acid-labeled P1”.
